## Apparent affinities of Ab-14 variants for a coronavirus HR2 peptide

Values reported by Engelhart et al. 2022, doi:10.1038/s41597-022-01779-4 (FLAb copy).

Binding partner: SARS-CoV-2 spike HR2 peptide, sequence PDVDLGDISGINAS.

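The parent was found by panning a naive human phage display library on the peptide. The library (AAYL49) carries one to three amino acid substitutions per variant, with no insertions or deletions. The assay is AlphaSeq: two haploid yeast populations carry antibody and antigen on their surface. Mating (16 h, 30 °C) was followed by selection of diploids and sequencing of their barcodes. Read counts were normalised to the haploid input and turned into Kd by a linear fit to BCL2-family pairs of known affinity, for each replicate. Each pool was mated in three replicate cultures.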

Each scFv is VH, the linker GGGGSGGGGSGGGGS, VL, as in the parent Ab-14, and differs from it in the CDRs of the heavy chain only.
VH: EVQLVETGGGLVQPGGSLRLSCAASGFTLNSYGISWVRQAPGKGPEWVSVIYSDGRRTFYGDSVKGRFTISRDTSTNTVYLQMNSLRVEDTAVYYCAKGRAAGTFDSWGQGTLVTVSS
VL: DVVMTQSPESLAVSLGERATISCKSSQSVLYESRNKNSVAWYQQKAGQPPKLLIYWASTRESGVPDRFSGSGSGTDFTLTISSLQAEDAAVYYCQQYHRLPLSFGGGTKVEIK

The parent's heavy chain CDRs are GFTLNSYGIS, VIYSDGRRTFYGDSVK, GRAAGTFDS; each variant's own CDRs replace them letter for letter. This list gathers variants with a substitution at G61 (VH, numbered from residue 1). Values are log10 of the apparent Kd in nM; lower means stronger binding. Averages over replicates are reported, and they cover detected replicates only. "no signal" means that the variant was in the library but no mating with the target was seen in any replicate; the authors take this as a sign of poor binding, and no number exists. In this assay the parent's reference entry averaged 0.65; its copy inside this library read 4.11 (one replicate of three). Three control strains display no target. For library AAYL49, 15% of the pairings with them gave a signal, with a median of 4.06 and one signal in twenty below 2.83, so weak values seen in few replicates may be background.

For GFTLNSYGIE | VIYSDGRRTFYHDSVK | GRAAGTFDS, the assay gave no signal (0 of 3 replicates). The variant GFTLNSYGIS | VIHSDGRREFYMDSVK | GRAAGTFDS showed 5.66 (1 of 3 replicates). The variant GFILNSYGIS | VIYSDGRRTFCLDSVK | GRAAGTFDS gave 4.39 (3 of 3 replicates). With GFTTNSYGIS | VIYSDGRRTFYPDSVK | GRAAGTFHS the result was 3.17 (1 of 3 replicates). The variant GFTLNSYGIS | VIYSDGRATFYPDSVK | GRAAGTFDY showed 3.95 (1 of 3 replicates). With GFTLNSYGGS | VIYSDGRRRFYYDSVK | GRAAGTFDS the result was 3.23 (1 of 3 replicates).

With GRTLNIYGIS | VIYSDGRRTFYVDSVK | GRAAGTFDS the result was 2.74 (3 of 3 replicates). The variant GWTLPSYGIS | VIYSDGRRTFYCDSVK | GRAAGTFDS gave 4.82 (1 of 3 replicates). The variant GFTLNSYGIS | VIYSDGRRTFYKDSVK | GRHAGTFDS gave 1.03 (3 of 3 replicates). For GFTLNSYGIS | VIYSDIRRTFYWDSVH | GRAAGTFDS, the assay gave 4.19 (1 of 3 replicates). For GFTLNSYGIS | VIYSDGRITFYNDSDK | GRAAGTFDS, the assay gave 2.94 (1 of 3 replicates). The variant GFTLNSYGIS | VIYSDGRRTFYWDSVK | GRAAGTFDS showed 4.42 (2 of 3 replicates).

The variant GFTLNSMGIS | VIYSDGRRTFYLDSVK | GRAAYTFDS showed 3.60 (3 of 3 replicates). With GFTLNSYGIS | VIYSDGRRIFYSDSVK | GRAAKTFDS the result was 3.27 (3 of 3 replicates). The variant GFTLQSYGIS | VIYSDGRRTFYLDSVK | GRAAGTFDS showed 1.19 (3 of 3 replicates). The variant GFCLNSYGIS | VIYSDGRRTFYKDSVK | GRAAGVFDS gave 2.05 (3 of 3 replicates). The variant PFTLNSYGIS | VIYSDGRRTFYMDSVK | GRAAGTADS gave no signal (0 of 3 replicates). The variant GFTLNSYGIS | VIYSAGRRTFYADSVK | GRAAFTFDS showed no signal (0 of 3 replicates).

The variant GFTLNSYGIS | VIYSDGRDTFYFDSVK | GRCAGTFDS gave no signal (0 of 3 replicates). The variant GFTLNSYGIS | VIYSDGRRTFYMDSHK | PRAAGTFDS gave 4.08 (3 of 3 replicates). With GFTLNSYGIS | MIYSDGRRTGYMDSVK | GRAAGTFDS the result was no signal (0 of 3 replicates). The variant GFTLNSYGTS | VIYSDGRRTFYHDSVK | GRYAGTFDS gave no signal (0 of 3 replicates). With GFTLNSYGIS | VITSDGRPTFYPDSVK | GRAAGTFDS the result was 3.76 (1 of 3 replicates). The variant GFTLNSYGIS | VIYPDGRRTFYNDSVK | GRWAGTFDS showed 5.40 (1 of 3 replicates).

With GQTLNSYGIS | VIYSDGRRTFYFDSVK | GRAYGTFDS the result was no signal (0 of 3 replicates). For GFTLNSYGIS | VICSDGRRTFYDDSVK | YRAAGTFDS, the assay gave no signal (0 of 3 replicates). The variant GFTLNSVGIS | VIYSDGRRTFYMDSVK | GRAAGTWDS showed no signal (0 of 3 replicates). With MFTLNSYGIS | VIYSDGRRTFYEDSVK | GSAAGTFDS the result was 2.95 (2 of 3 replicates). The variant GFTLNSYGII | VIYSDGRRTFYQDSVK | GRARGTFDS gave 4.97 (1 of 3 replicates). The variant GFTLNSYGIT | VIYSDGRRTFYQDSVK | WRAAGTFDS gave no signal (0 of 3 replicates).

With GFTLNSYGIS | VIYSDGRRTFYRDSVK | GRAAGYFDE the result was 3.60 (1 of 3 replicates). For GFTLNSYGIS | VNYSDGRRTFYCDSVK | GRAAGTFDS, the assay gave 3.11 (1 of 3 replicates). The variant GFTLNSYGIS | VIDSDGRRTFTRDSVK | GRAAGTFDS showed 4.57 (2 of 3 replicates). The variant GFTLNSYGIS | VIYSDGRRTFRTDSVK | GRAAGTFDS gave no signal (0 of 3 replicates). The variant GFTLNPYGIS | QIYSDGRRTFYRDSVK | GRAAGTFDS gave 4.54 (1 of 3 replicates). For GFTLNSYGIS | VIYSDGRTEFYEDSVK | GRAAGTFDS, the assay gave no signal (0 of 3 replicates).

For GFTLNSYGIS | VIYSDGRRTFYADSVK | GRAAGTFRD, the assay gave 0.85 (3 of 3 replicates). The variant GFTLNSYGWS | VIYSDGRFTFYTDSVK | GRAAGTFDS gave 4.19 (1 of 3 replicates). The variant GFTLNSYGIS | VINSDGRRTFYVDSVK | GRAAGTFDS gave no signal (0 of 3 replicates). For GFVLNSYGIS | VIYSDGRRTFYCDSVK | GRAAGTFDS, the assay gave 2.15 (3 of 3 replicates). The variant GFTLNSYGIS | SIYSDGRRTFYMDSTK | GRAAGTFDS showed no signal (0 of 3 replicates). The variant KFTRNSYGIS | VIYSDGRRTFYWDSVK | GRAAGTFDS gave 3.24 (1 of 3 replicates).

The variant GFTLNSYGIS | VIYSMGRRTFYLDSVK | GRAAGTFAS showed no signal (0 of 3 replicates). The variant GFTLNSYGIS | VIYSDGRRTFYLDQVK | GRAAGTQDS showed 4.02 (2 of 3 replicates). For GFTLPSYGIS | VIYSDGRRTFYMDSVK | GLAAGTFDS, the assay gave 2.48 (1 of 3 replicates). The variant GFTLNSYGIS | VIYSDGYRTFYDDSVK | GREAGTFDS gave 0.62 (3 of 3 replicates). The variant GFTLNSYGIS | VIYSVGQRTFYLDSVK | GRAAGTFDS gave no signal (0 of 3 replicates). The variant GFTLNSYGIS | VIYSDGRRTFYLDSVK | QTAAGTFDS showed no signal (0 of 3 replicates).

For GFTLNSYGIS | VIYYDGRRTFYLDPVK | GRAAGTFDS, the assay gave 2.87 (1 of 3 replicates). With GFTLNSYGIH | VNYSDGRRTFYSDSVK | GRAAGTFDS the result was no signal (0 of 3 replicates).

A selection of 8 entries from above:

{"CDR-H1": "GRTLNIYGIS", "CDR-H2": "VIYSDGRRTFYVDSVK", "CDR-H3": "GRAAGTFDS", "mean, log10 nM": "2.74", "replicates with signal": "3/3"}
{"CDR-H1": "GFTLNSYGIS", "CDR-H2": "VIYSDGRRTFYMDSHK", "CDR-H3": "PRAAGTFDS", "mean, log10 nM": "4.08", "replicates with signal": "3/3"}
{"CDR-H1": "GFTLNSYGIS", "CDR-H2": "VIYSDGRTEFYEDSVK", "CDR-H3": "GRAAGTFDS", "mean, log10 nM": "no signal", "replicates with signal": "0/3"}
{"CDR-H1": "GFTLNSYGIS", "CDR-H2": "VIYPDGRRTFYNDSVK", "CDR-H3": "GRWAGTFDS", "mean, log10 nM": "5.40", "replicates with signal": "1/3"}
{"CDR-H1": "GFTLNSYGIS", "CDR-H2": "VICSDGRRTFYDDSVK", "CDR-H3": "YRAAGTFDS", "mean, log10 nM": "no signal", "replicates with signal": "0/3"}
{"CDR-H1": "GWTLPSYGIS", "CDR-H2": "VIYSDGRRTFYCDSVK", "CDR-H3": "GRAAGTFDS", "mean, log10 nM": "4.82", "replicates with signal": "1/3"}
{"CDR-H1": "GFTLNSYGIS", "CDR-H2": "VIYSDGRATFYPDSVK", "CDR-H3": "GRAAGTFDY", "mean, log10 nM": "3.95", "replicates with signal": "1/3"}
{"CDR-H1": "GFTLNSYGIS", "CDR-H2": "VINSDGRRTFYVDSVK", "CDR-H3": "GRAAGTFDS", "mean, log10 nM": "no signal", "replicates with signal": "0/3"}